Reference: US20230338337A1, “BIOMARKERS FOR CANCER THERAPY USING MDM2 ANTAGONISTS” (OTSUKA PHARMACEUTICAL CO., LTD., priority 2019, published 2023)

Amino acid sequences for entries named in this document (tags omitted).
UniProt Q00987, whole entry: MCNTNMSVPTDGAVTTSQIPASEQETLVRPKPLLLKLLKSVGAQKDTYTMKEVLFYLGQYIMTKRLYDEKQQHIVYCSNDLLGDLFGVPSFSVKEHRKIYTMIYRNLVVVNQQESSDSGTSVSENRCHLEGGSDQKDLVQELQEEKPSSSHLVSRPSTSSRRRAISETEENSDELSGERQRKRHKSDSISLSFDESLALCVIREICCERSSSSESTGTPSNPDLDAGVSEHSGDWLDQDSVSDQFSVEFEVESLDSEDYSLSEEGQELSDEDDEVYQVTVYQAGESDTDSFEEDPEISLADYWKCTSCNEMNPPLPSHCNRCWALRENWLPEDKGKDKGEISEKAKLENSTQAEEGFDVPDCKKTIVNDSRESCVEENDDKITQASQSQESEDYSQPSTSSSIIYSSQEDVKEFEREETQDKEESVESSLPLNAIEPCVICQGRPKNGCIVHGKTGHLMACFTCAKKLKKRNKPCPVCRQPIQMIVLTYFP

Each compound was assayed on #18 mesothelioma cell line (assay: 72-hour Alamar Blue proliferation assay). Conditions: Homo sapiens, read-out: Mean Compound 1 Proliferation IC50 (μM), cell line #18.
Format: cell-based
Method: (§1) For all cell lines the number of viable cells was determined by measuring the conversion of Rezasurin (Alamar Blue) to Resorufin in response to mitochondrial activity of the viable cells. Alamar Blue™ (AbD Serotec/Bio-Rad, Hercules, CA, USA) was added to 10% of the well volume (20 μl/well) towards the end of the treatment period and incubated for a further 8-24 h. […] Each well was calculated as percentage of the mean DMSO control.

IC50 [µM]	Compound
0.11	CC[C@@](O)(c1cc(F)c2c(c1)C(=O)N([C@H](c1ccc(Cl)cc1)[C@H](C)C(=O)O)[C@@]2(OC)c1ccc(Cl)cc1)C1CCOCC1 [Compound 1, (2S,3S)-3-(4-chlorophenyl)-3-[(1R)-1-(4-chlorophenyl)-7-fluoro-5-[(1S)-1-hydroxy-1-(oxan-4-yl)propyl]-1-methoxy-3-oxo-2,3-dihydro-1H-isoindol-2-yl]-2-methylpropanoic acid]

What follows are compounds tested on #26 mesothelioma cell line (assay: 72-hour Alamar Blue proliferation assay). Conditions: Homo sapiens, read-out: Mean Compound 1 Proliferation IC50 (μM), cell line #26.
Format: cell-based
Method: as §1

IC50 [µM]	Compound
0.36	CC[C@@](O)(c1cc(F)c2c(c1)C(=O)N([C@H](c1ccc(Cl)cc1)[C@H](C)C(=O)O)[C@@]2(OC)c1ccc(Cl)cc1)C1CCOCC1 [Compound 1, (2S,3S)-3-(4-chlorophenyl)-3-[(1R)-1-(4-chlorophenyl)-7-fluoro-5-[(1S)-1-hydroxy-1-(oxan-4-yl)propyl]-1-methoxy-3-oxo-2,3-dihydro-1H-isoindol-2-yl]-2-methylpropanoic acid]

What follows are compounds tested on MESO-7T mesothelioma cell line (assay: 72-hour Alamar Blue proliferation assay). Conditions: Homo sapiens, read-out: Mean Compound 1 Proliferation IC50 (μM), cell line MESO-7T.
Format: cell-based
Method: as §1

IC50 [µM]	Compound
0.36	CC[C@@](O)(c1cc(F)c2c(c1)C(=O)N([C@H](c1ccc(Cl)cc1)[C@H](C)C(=O)O)[C@@]2(OC)c1ccc(Cl)cc1)C1CCOCC1 [Compound 1, (2S,3S)-3-(4-chlorophenyl)-3-[(1R)-1-(4-chlorophenyl)-7-fluoro-5-[(1S)-1-hydroxy-1-(oxan-4-yl)propyl]-1-methoxy-3-oxo-2,3-dihydro-1H-isoindol-2-yl]-2-methylpropanoic acid]

These compounds were tested on SJSA-1 (p53 wild-type, MDM2 amplified osteosarcoma) (assay: Protocol A: SRB growth inhibition assay). Conditions: Homo sapiens, SJSA-1, read-out: SJSA-1 IC50 (μM) (Protocol A).

Compound	IC50 [µM]
CCC(O)(c1cc(F)c2c(c1)C(=O)N(Cc1ncc(Cl)cc1O)[C@@]2(OCCO)c1ccc(Cl)cc1)c1cn(C)cn1 (stereo partly drawn) [Example 443, (3R)-2-[(5-chloro-3-hydroxypyridin-2-yl)methyl]-3-(4-chlorophenyl)-4-fluoro-6-[1-hydroxy-1-(1-methyl-1H-imidazol-4-yl)propyl]-3-(2-hydroxyethoxy)-2,3-dihydro-1H-isoindol-1-one]	0.11
CCC(O)(c1cc(F)c2c(c1)C(=O)N(Cc1ccc(C#N)cn1)[C@@]2(O[C@H]1CCOC1)c1ccc(Cl)cc1)C1(F)CCOCC1 (stereo partly drawn) [Example 446, 6-{[(1R)-1-(4-chlorophenyl)-7-fluoro-5-[1-(4-fluorooxan-4-yl)-1-hydroxypropyl]-3-oxo-1-[(3S)-oxolan-3-yloxy]-2,3-dihydro-1H-isoindol-2-yl]methyl}pyridine-3-carbonitrile]	0.018

Each compound was assayed on SJSA-1 (assay: Protocol B: CellTiter-Glo cell viability assay). Conditions: Homo sapiens, SJSA-1, 72 h, read-out: SJSA1 IC50 (μM) (Protocol B), SJSA-1, CellTiter-Glo, 72 hrs.

Compound	IC50 [µM]
CC[C@@](O)(c1cc(F)c2c(c1)C(=O)N(Cc1ccc(C#N)cc1)[C@@]2(O[C@H]1C[C@@H](O)C1)c1ccc(Cl)cc1)C1CCN(C)CC1 [Example 130, 4-{[(1R)-1-(4-chlorophenyl)-7-fluoro-5-[(1S)-1-hydroxy-1-(1-methylpiperidin-4-yl)propyl]-3-oxo-1-[cis-3-hydroxycyclobutoxy]-2,3-dihydro-1H-isoindol-2-yl]methyl}benzonitrile]	0.23

Same assay, conditions: read-out: SJSA1 IC50 (μM) (Protocol B); Protocol B

IC50 [µM]	Compound
0.077	6-{[(1R)-1-(4-chlorophenyl)-7-fluoro-5-(2-hydroxybutan-2-yl)-1-{[1-(hydroxymethyl)cyclopropyl]methoxy}-3-oxo-2,3-dihydro-1H-isoindol-2-yl]methyl}pyridine-3-carbonitrile [Example 411]
0.74	6-{[(1R)-1-(4-chlorophenyl)-7-fluoro-5-[hydroxy(1-methyl-1H-pyrazol-4-yl)methyl]-3-oxo-1-[(3S)-oxolan-3-yloxy]-2,3-dihydro-1H-isoindol-2-yl]methyl}pyridine-3-carbonitrile [Example 360]
0.41	6-{[(1R)-1-(4-chlorophenyl)-7-fluoro-1-{[1-(hydroxymethyl)cyclopropyl]methoxy}-3-oxo-5-(1,1,1-trifluoro-2-hydroxypropan-2-yl)-2,3-dihydro-1H-isoindol-2-yl]methyl}pyridine-3-carbonitrile [Example 417]
0.43	6-{[(1R)-1-(4-chlorophenyl)-7-fluoro-5-[1-hydroxy-1-(1-methyl-1H-pyrazol-4-yl)ethyl]-3-oxo-1-[(3S)-oxolan-3-yloxy]-2,3-dihydro-1H-isoindol-2-yl]methyl}pyridine-3-carbonitrile [Example 218]
1.9	6-{[(1R)-1-(4-chlorophenyl)-7-fluoro-5-[1-hydroxy-1-(1-methyl-1H-pyrazol-4-yl)ethyl]-3-oxo-1-[(3S)-oxolan-3-yloxy]-2,3-dihydro-1H-isoindol-2-yl]methyl}pyridine-3-carbonitrile [Example 344]
0.27	6-{[(1R)-1-(4-Chlorophenyl)-7-fluoro-5-(2-hydroxybut-3-en-2-yl)-1-{[1-(hydroxymethyl)cyclopropyl]methoxy}-3-oxo-2,3-dihydro-1H-isoindol-2-yl]methyl}pyridine-3-carbonitrile [Example 412]
0.27	6-{[(1R)-1-(4-chlorophenyl)-7-fluoro-1-({1-[hydroxy(^2H2)methyl]cyclopropyl}(^2H2)methoxy)-5-[1-hydroxy-1-(1-methyl-1H-pyrazol-4-yl)ethyl]-3-oxo-2,3-dihydro-1H-isoindol-2-yl]methyl}pyridine-3-carbonitrile [Example 353]
0.24	6-{[(1R)-1-(4-Chlorophenyl)-7-fluoro-5-(2-hydroxybut-3-en-2-yl)-1-{[1-(hydroxymethyl)cyclopropyl]methoxy}-3-oxo-2,3-dihydro-1H-isoindol-2-yl]methyl}pyridine-3-carbonitrile [Example 413]
0.3	6-{[(1R)-1-(4-chlorophenyl)-7-fluoro-5-[hydroxy(1-methyl-1H-pyrazol-4-yl)methyl]-3-oxo-1-[(3S)-oxolan-3-yloxy]-2,3-dihydro-1H-isoindol-2-yl]methyl}pyridine-3-carbonitrile [Example 357]
0.15	6-{[(1R)-1-(4-chlorophenyl)-7-fluoro-1-{[1-(hydroxymethyl)cyclopropyl]methoxy}-3-oxo-5-(1,1,1-trifluoro-2-hydroxypropan-2-yl)-2,3-dihydro-1H-isoindol-2-yl]methyl}pyridine-3-carbonitrile [Example 416]
0.19	6-{[(1R)-1-(4-chlorophenyl)-7-fluoro-5-(2-hydroxybutan-2-yl)-1-{[1-(hydroxymethyl)cyclopropyl]methoxy}-3-oxo-2,3-dihydro-1H-isoindol-2-yl]methyl}pyridine-3-carbonitrile [Example 410]

Compound	IC50 [µM]
CCC(O)(c1cc(F)c2c(c1)C(=O)N(Cc1ncc(C#N)cn1)[C@@]2(O[C@H]1CCOC1)c1ccc(Cl)cc1)c1cn(C)cn1 (stereo partly drawn) [Example 370, 2-{[(1R)-1-(4-chlorophenyl)-7-fluoro-5-[1-hydroxy-1-(1-methyl-1H-imidazol-4-yl)propyl]-3-oxo-1-[(3S)-oxolan-3-yloxy]-2,3-dihydro-1H-isoindol-2-yl]methyl}pyrimidine-5-carbonitrile]	3.5
[2H]C([2H])([2H])C1(C([2H])([2H])O[C@]2(c3ccc(Cl)cc3)c3c(F)cc(C(O)(CC)c4cn(C)cn4)cc3C(=O)N2Cc2ccc(C#N)cn2)CC1 (stereo partly drawn) [Example 440, 6-{[(1R)-1-(4-chlorophenyl)-7-fluoro-1-({1-[hydroxy(^2H2)methyl]cyclopropyl}(^2H2)methoxy)-5-[1-hydroxy-1-(1-methyl-1H-imidazol-4-yl)propyl]-3-oxo-2,3-dihydro-1H-isoindol-2-yl]methyl}pyridine-3-carbonitrile]	1.9
CCC(O)(c1cc(F)c2c(c1)C(=O)N(Cc1ccc(C#N)cn1)[C@@]2(O[C@H]1CCOC1)c1ccc(Cl)cc1)C1(F)CCOCC1 (stereo partly drawn) [Example 445, 6-{[(1R)-1-(4-chlorophenyl)-7-fluoro-5-[1-(4-fluorooxan-4-yl)-1-hydroxypropyl]-3-oxo-1-[(3S)-oxolan-3-yloxy]-2,3-dihydro-1H-isoindol-2-yl]methyl}pyridine-3-carbonitrile]	3.3
CC(O)(c1cc(F)c2c(c1)C(=O)N(Cc1ncc(Cl)cn1)[C@@]2(OCC1(CO)CC1)c1ccc(Cl)cc1)[C@H]1CC[C@H](O)CC1 (stereo partly drawn) [Example 402, (3R)-3-(4-chlorophenyl)-2-[(5-chloropyrimidin-2-yl)methyl]-4-fluoro-6-{1-hydroxy-1-[trans-4-hydroxycyclohexyl]ethyl}-3-{[1-(hydroxymethyl)cyclopropyl]methoxy}-2,3-dihydro-1H-isoindol-1-one]	0.21
CCC(O)(CN1CCN(C)CC1)c1cc(F)c2c(c1)C(=O)N(Cc1ncc(Cl)cn1)[C@@]2(O[C@H]1CCOC1)c1ccc(Cl)cc1 (stereo partly drawn) [Example 523, (3R)-3-(4-chlorophenyl)-2-[(5-chloropyrimidin-2-yl)methyl]-4-fluoro-6-[2-hydroxy-1-(4-methylpiperazin-1-yl)butan-2-yl]-3-[(3S)-oxolan-3-yloxy]-2,3-dihydro-1H-isoindol-1-one]	1.5

Each compound was assayed against MDM2-p53 interaction (in vitro translated MDM2) (Homo sapiens (Human), UniProt Q00987) (assay: MDM2-p53 interaction 96-well plate binding assay (ELISA)). Conditions: read-out: MDM2 IC50.

IC50 [nM]	Compound
140	CC(C)(O)c1ccc2c(c1)C(=O)N(Cc1ccc(Cl)cc1)[C@@]2(OCC1(C(=O)O)CC1)c1ccc(Cl)cc1 [Example 5, 1-({[(1R)-1-(4-chlorophenyl)-2-[(4-chlorophenyl)methyl]-5-(2-hydroxypropan-2-yl)-3-oxo-2,3-dihydro-1H-isoindol-1-yl]oxy}methyl)cyclopropane-1-carboxylic acid]
